Tested on: PHD (HIFα prolyl hydroxylase)
Test: In vitro PHD activity (hydroxylation of in vitro-translated HA-ODDD by cell extracts, gel shift on SDS-PAGE)
Format: biochemical, human
Conditions: HeLa cell extracts, α-ketoglutarate 0.1 to 1 mM in presence of 1 mM succinate

O=C(O)CCC(=O)C(=O)O [free α-ketoglutaric acid, 2-Oxo-pentanedioic acid]
PHD activity (production of hydroxylated HA-ODD): concentration-dependent stimulation of PHD activity

— patent US20090005437A1, “Alpha-Ketoglutarates and Their Use as Therapeutic Agents” (priority 2004, published 2009)
